Antibody variant affinities, Ab-14 light chain, assay B

Antigen: PDVDLGDISGINAS, a 14-residue peptide of the SARS-CoV-2 spike HR2 region.

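The parent was found by panning a naive human phage display library on the peptide. This is the validation round: designs drawn from the data on random variants, tested in the same kind of assay. Several design methods are mixed in this list. The scFvs were displayed on barcoded MATa yeast, the peptide on MATalpha yeast. The frequency of each diploid, read from paired DNA barcodes, reflects how well the two displayed proteins bind. A regression on co-assayed BCL2-family reference pairs converts the normalised counts of each replicate to an apparent Kd. Mating was done six times.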

Each scFv is VH, the linker GGGGSGGGGSGGGGS, VL, as in the parent Ab-14, and differs from it in the CDRs of the light chain only.
VH: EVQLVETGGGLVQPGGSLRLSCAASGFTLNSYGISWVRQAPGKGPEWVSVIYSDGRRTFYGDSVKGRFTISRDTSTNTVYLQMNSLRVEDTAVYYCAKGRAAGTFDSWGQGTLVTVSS
VL: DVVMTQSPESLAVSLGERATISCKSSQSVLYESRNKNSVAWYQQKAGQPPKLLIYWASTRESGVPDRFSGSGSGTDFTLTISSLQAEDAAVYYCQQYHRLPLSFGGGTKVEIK

The parent's light chain CDRs are KSSQSVLYESRNKNSVA, WASTRES, QQYHRLPLS; each variant's own CDRs replace them letter for letter.
This list holds designs with more than six substitutions.
The Kd shown is the geometric mean over detected replicates; a lower Kd is a better binder.
"no signal" marks a missing value. The strain was present, yet no cells mated with the target were sequenced in any replicate, which points to weak or no binding.
Of ten entries with the parent sequence, four were seen in most replicates (averages 2.2 nM to 240 nM), three in one and three in none, so single entries are noisy.
In the paper, a design with two or fewer of six values counts as a poor binder.
Background: pairings of all light chain designs with three empty control strains gave a value in 4% of cases (median 430 nM, 5th percentile 38 nM). Values in that range, when seen in few replicates, are hard to tell from nonspecific mating.
A sequence measured in both rounds can read differently, since the two assays cover different ranges.

| CDR-L1 | CDR-L2 | CDR-L3 | Kd (apparent) | seen in |
|---|---|---|---|---|
| KISQMVKVGATHNNSIA | EEQTRAK | QQYHRLPLA | 16 nM | 6/6 |
| FLTYQQDQTGLQYNAIA | QVNLKEN | QQYGRLPLA | no signal | 0/6 |
| MMSQVTGQGQRHRNNVA | QTSTREE | QQYDRLPLI | 14 nM | 6/6 |
| KVSEMMAFLSSNRNNVA | DNSTRGS | QQYHRLPLS | no signal | 0/6 |
| KIGATLNTLYEKANNVA | DLVEREN | QQYYRLPLS | 66 nM | 6/6 |
| KISSMFYYESINKNSVA | QKSTREE | QDYHRLPLS | 3.3 nM | 6/6 |
| NMQLQVRNGENNKYNIA | AEMKRVY | QQYQRLPLM | 32 nM | 6/6 |
| TIGQVMHYDSRNKNSVA | QTSTREE | QDYHRLPLS | 2.5 nM | 6/6 |
| ALSQSMDMTSRNKNSVA | DLSTRMN | QQYHRLPLS | 570 pM | 6/6 |
| HISQMVMYGSCNPNNVA | QVSTREE | QQYHRLPLS | 2.9 nM | 6/6 |
| QIGMLLNFESKIVNNVA | QMETRVS | QQYDRLPLS | 6.5 nM | 6/6 |
| AMQMERLGQGQYQNNIA | NQDLRTA | QQYYMLPLV | 4.0 nM | 6/6 |
| QIDSFYQHGTDAKQAMA | DVSVRTQ | QQYSRLPLS | 410 pM | 6/6 |
| KFSQSNLYEDRMQNNVA | NASQREQ | QQYHRLPLS | 790 pM | 6/6 |
| KFAMGLDYNNAHKSAIA | HADIRNI | QQYFRLPLD | 57 nM | 6/6 |
| KISQMTRVGATHSNSIA | EEVTRAK | QQYHRLPLA | 59 nM | 5/6 |
| QIYQAMHTLMQAKNNVA | DVNERGD | QQYFRLPLS | 5.5 nM | 6/6 |
| KLYQNVGTMTHNKQSIA | DMERRED | QQYHRLPLS | 2.0 nM | 6/6 |
| TISQMTSLFSQSINNVA | EVSMREE | QQYDRLPLA | 25 nM | 5/6 |
| TISQSFMMENQFKNSVA | QATTRES | QCYDRLPLS | 260 nM | 4/6 |
| KISYLANQTFEESNNVA | EMVTREK | QQYNRLPLS | 8.5 nM | 3/6 |
| KLKYQADQYGMQWNNVA | HADIRAP | QQYNKLPLN | 2.6 nM | 6/6 |
| RISMQFTWPGNARQNVA | EIQKAID | QQYAHLPLS | 160 nM | 3/6 |
| MFSQLVYTGSHTRNAVA | QASTREN | QQYHHLPLS | 9.7 nM | 6/6 |
| KLSMSMLMESRNKQSVA | ENSTRES | QHYHRLPLS | no signal | 0/6 |
| KIGHGVTGTSRKGNSVA | QAETRLD | QQYHRLPLM | 7.3 nM | 6/6 |
| KLRQVTEYESFYKNSVA | QTSTRES | QDYDRLPLS | 4.3 nM | 6/6 |
| KLQWSWLYMSRNCNSVA | DASQRES | QQYHRLPLS | 4.3 nM | 6/6 |
| TISQSWFIESKNKNNVA | EMTTREN | QDYDRLPLS | 2.0 nM | 6/6 |
| KVSEFMRGLMQLKDSIA | DNVTRNK | QQYDRLPLS | 48 nM | 6/6 |
| MVTQLAMTGMMSKRSVA | NAETRET | QQYHRLPLI | 5.3 nM | 6/6 |
| MLSQVMNTLTRHGNNVA | DLENRED | QQYFRLPLS | 79 nM | 2/6 |
| KISQMVKVGSTHSNSIA | EEVTRAK | QQYHRLPLA | 14 nM | 6/6 |
| KLGATMNTESTKRNNVA | DLVMREN | QQYFRLPLS | 14 nM | 3/6 |
| HLGGLMTWEEKGRNSVA | QQETRAE | QQYHHLPLS | 2.0 nM | 6/6 |
| KLQQSVLQLWRNANSVA | QASHRES | QQYHRLPLS | 1.7 nM | 6/6 |
| KLSQMVGGESRNKSSLA | DNSTREY | QQYHRLPLS | 140 nM | 6/6 |
| KLDLSMSYSHEGRRAIA | NADALVI | QQYHRLPLI | 3.6 nM | 6/6 |
| YVSIQAAQDRNQQSSIA | GVDYREK | QQYYHLPLS | 8.8 nM | 6/6 |
| MVNGIMDHLSKQTNNVA | ETTTREE | QQYDRLPLT | 8.0 nM | 6/6 |
| KLSQSVRMESFQKDNVA | ENSTREA | QDYHRLPLS | no signal | 0/6 |
| KLRQSTVIESFNKNNVA | EMTTRES | QSYDRLPLS | 230 nM | 5/6 |
| KLEQLVDYKDRNLNSVA | NASTRES | QQYHRLPLS | 1.3 nM | 6/6 |
| TISQMMLMQTSHKNSVA | GEETRYN | QQYHRLPLS | 4.1 nM | 6/6 |
| KLYQSMGYLSRNKNSIA | DMDRREN | QQYHRLPLS | 1.1 nM | 6/6 |
| AVSIQQMENTAIWNAIA | DTSLRAH | QQYYHLPLC | 9.1 nM | 6/6 |
| KVSEFMRGLMQRTDSIA | DNVTRGN | QQYDRLPLS | 210 nM | 1/6 |
| TIGSGTNGEKFQSNSVA | QASTREE | QQYHRLPLS | 1.4 nM | 6/6 |
| RIDAYPNMLGKNIESIA | EAALTLH | QQYARLPLS | 27 nM | 6/6 |
| TITQSMLMTSHNMNSVA | HASTREE | QQYHRLPLI | 2.0 nM | 6/6 |
| MISDLTMYGSRNVQSVA | DLSTRGS | QQYDRLPLS | 3.2 nM | 6/6 |
| KLSQSVRMEQFNKDNVA | ENSTREA | QDYHRLPLS | no signal | 0/6 |
| MISQLMNMGTFAINSVA | QAEIRNM | QQYDRLPLT | 400 nM | 2/6 |
| KIHELGVGNWKTANNIA | QTDIRMS | QSYNRLPLS | 2.0 nM | 6/6 |
| MFSQGVMVGWLTRNSVA | NSSTRES | QQYDRLPLS | 22 nM | 4/6 |
| KVGEMMAFLSSNRNSVA | DNSTRGS | QQYHRLPLS | 24 nM | 6/6 |
| KLSMTHEMEHVNRNSVA | ELVTRMK | QQYNRLPLS | 1.3 nM | 6/6 |
| TISELHNQALGIRNNVA | NNQTRED | QQYDRLPLS | 1.3 µM | 2/6 |
| NIYQAMHTLSQMKNNVA | DVNERGD | QQYFRLPLS | 2.4 nM | 6/6 |
| KLSPSFLYESRNKNSVA | DADTRLE | QQYHRLPLS | 1.1 nM | 6/6 |
| MISQLYNMGQFAINSVA | QASVRNE | QQYDRLPLQ | 21 nM | 6/6 |
| QIAMEMYHGLNDAQNVA | DAMTCIK | QQYSRLPLF | no signal | 0/6 |
| QVGQTRQADISNKKSIA | AGETLID | QQYGRLPFS | 2.4 nM | 6/6 |
| KLGQSTAMTSRNKNNVA | DLNERER | QQYHRLPLS | 1.1 nM | 6/6 |
| SLVQEKSVGDKNAGNIA | AGNQLSV | QQYNRLPLS | 2.9 nM | 6/6 |
| SLHMMPPVGYALDENVA | NASQLFS | QQYFRLPLT | no signal | 0/6 |
| KLSQSWLYEARNSNSVA | NASQRED | QQYHRLPLS | 2.4 nM | 6/6 |
| KMSQSVPLESRNDNAVA | MASTRMM | QQYHRLPLS | 1.6 nM | 6/6 |
| KLTMITGLEKVIGNNVA | EMETREK | QQYNRLPLS | 11 nM | 6/6 |
| KLSGQMLYEERNSNSVA | HASHRES | QQYHRLPLS | 2.0 nM | 6/6 |
| TISGVMQTQSHSKNNVA | EVSMRLS | QQYFRLPLE | 8.0 nM | 6/6 |
| KLSQSEPYESRNKNSVA | NASYRMS | QQYHRLPLH | 5.7 nM | 6/6 |
| KIGMTLNMMMHSKNNVA | DLVTREN | QQYHRLPLS | 12 nM | 6/6 |
| KLMGSVLYESRMKNSVA | GASQREK | QQYHRLPLS | 1.0 nM | 6/6 |
| KLTMITGLEKVSKNNVA | EMETRLQ | QQYNRLPLS | 2.7 nM | 6/6 |
| KFFQSELDDMRNDNSVA | SASTRLS | QQYHRLPLS | 3.4 nM | 6/6 |
| KISMTYRYEQQASNSIA | EMTTRAE | QSYHRLPLS | 3.5 nM | 6/6 |
| KLSQSVRMESFDKNSVA | ENSTREA | QDYHRLPLS | 320 nM | 1/6 |
| KIYAASMLESTDKNSIA | DLTNRGN | QQYHRLPLS | 5.8 nM | 6/6 |
| TISGIMDQMSHSKNNVA | EVSMRFD | QQYFRLPLE | 48 nM | 1/6 |

From the AlphaSeq antibody data of Li et al. 2023 (doi:10.1038/s41467-023-39022-2), copy in the FLAb collection.